The source of these data is patent publication US20220024982A1 (Bicycle, published 2022).

Test [1] has as its target T1, MT1-MMP Hemopexin domain (PEX) (UniProt P50281 319-511).
T1 construct: domain: Hemopexin domain (PEX); Target of the fluorescence polarisation assays; also called hemopexin of MT1-MMP; MMP14
As to the kind of experiment: FP competition vs tracer 17-69-07-N041. An excerpt: (§1) Here, a pre-formed complex of PEX with the fluorescent PEX-binding tracer is titrated with free, non-fluoresceinated bicyclic peptide. Since all 17-69-based peptides are expected to bind at the same site, the titrant will displace the fluorescent tracer from PEX. Dissociation of the complex can be measured quantitatively, and the Kd of the competitor (titrant) to the target protein determined. The advantage of the competition method is that the affinities of non-fluoresceinated bicyclic peptides can be determined accurately and rapidly.
(§2) Subsequently, the non-fluorescent competitor bicyclic peptide (usually just the bicycle core sequence) is titrated, such that it displaces the fluorescent tracer from the target protein. The displacement of the tracer is measured and associated with a drop in fluorescence polarisation. The drop in fluorescence polarisation is proportional to the fraction of target protein bound with the non-fluorescent titrant, and thus is a measure of the affinity of titrant to target protein.
(§3) The raw data is fit to the analytical solution of the cubic equation that describes the equilibria between fluorescent tracer, titrant, and binding protein. The fit requires the value of the affinity of fluorescent tracer to the target protein, which can be determined separately by direct binding FP experiments (see previous section).

Test [2] addresses T1, MT1-MMP Hemopexin domain (PEX). The test can be described thus: FP competition vs tracer 17-88-N006. As to the method: as §2, §3
For test [3] the target is unchanged. As to the kind of experiment: FP competition vs tracer 17-88-226-N002. The method, then: as §2, §3
For test [4], the target named is T2, human MT1 MMP14 protein, hemopexin domain (obtained from Merck Millipore) (human, UniProt P50281 319-511, limits assumed, randomly biotinylated (EZ-Link Sulfo-NHS-LC-LC-Biotin)).
T2 construct: domain: hemopexin domain; Target of the SPR assay, captured on streptavidin; also called biotinylated MT1 MMP14
As to the kind of experiment: SPR, biotinylated target on streptavidin chip. As to the method:
Biacore experiments were performed to determine KD (nM) values of monomeric peptides binding to human MT1 MMP14 protein, hemopexin domain (obtained from Merck Millipore).
For analysis of peptide binding, a Biacore 3000 instrument was used utilising a CM5 chip (GE Healthcare). Streptavidin was immobilized on the chip using standard amine-coupling chemistry at 25° C. with HBS-N (10 mM HEPES, 0.15 M NaCl, pH 7.4) as the running buffer. Briefly, the carboxymethyl dextran surface was activated with a 7 minute injection of a 1:1 ratio of 0.4 M 1-ethyl-3-(3-dimethylaminopropyl) carbodiimide hydrochloride (EDC)/0.1 M N-hydroxy succinimide (NHS) at a flow rate of 10 μl/min. For capture of streptavidin, the protein was diluted to 0.2 mg/ml in 10 mM sodium acetate (pH 4.5) and captured by injecting 120 μl of streptavidin onto the activated chip surface. Residual activated groups were blocked with a 7 minute injection of 1 M ethanolamine (pH 8.5) and biotinylated MT1 MMP14 captured to a level of 1,200-1,800 RU. Buffer was changed to PBS/0.05% Tween 20 and a dilution series of the peptides was prepared in this buffer with a final DMSO concentration of 0.5%. The top peptide concentration was 100 nM with 6 further 2-fold dilutions. […]
For orientation: Surface plasmon resonance follows binding to a sensor surface in real time, without labels.

Test [5] deals with T1, MT1-MMP Hemopexin domain (PEX). As to the kind of experiment: FP competition vs tracer 17-69-12-N004.
Description: as §1, §2, §3

The target is the same in test [6]. As to the kind of experiment: FP competition, plate 1, tracer not named.
Test [7] shares this target. As to the kind of experiment: FP competition, plate 2, tracer not named.

B1: 17-111-01 (peptide)
peptide: ACPDLCLDLFPNCA
modifications: 3 Cys linked to TATA scaffold
By Kd is commonly meant the equilibrium constant for the complex coming apart. High values mean a looser complex, low ones a tighter complex. B1: binding in test [1] was put at a Kd of 1800 nM.

B2: 17-120-30-T01 (peptide)
peptide: SPPPCIRECSLLFPKTCA
modifications: 3 Cys linked to TATA scaffold
In the case of B2, binding in test [2] was put at a Kd of 78.7 nM.

B3: Ac-(17-120-09-T03) (peptide)
peptide: ALPPCVRECALLFPKTC
modifications: N-terminal acetyl; 3 Cys linked to TATA scaffold
notes: also called BCY1125
As to B3, the Kd in test [3] amounted to 18.6 nM; in test [4], 15.1 nM.

B4: Ac-(17-126-25) (peptide)
peptide: ACEEAFYPCHHPLYRCA
modifications: N-terminal acetyl; 3 Cys linked to TATA scaffold
Molecule B4 returned a Kd in test [5] of 60.5 nM.

B5: 17-120-32-T01 (peptide)
peptide: MPPPCVAECKLLFPKTCA
modifications: 3 Cys linked to TATA scaffold
In test [2], B5 showed a Kd of 63.8 nM.

B6: 17-120-09-T03 (peptide)
peptide: ALPPCVRECALLFPKTCA
modifications: 3 Cys linked to TATA scaffold
notes: also called BCY1124
What is called Ki is the equilibrium dissociation constant of an inhibitor or competing ligand from its target. Low readings indicate tighter binding, high ones weaker binding. Turning to B6, the figures for the Kd in test [2], in test [3] and in test [4] were 35.6 nM, 32 nM and 14.8 nM, respectively. The Ki in test [6] stood at 78 nM; in test [7] it was 107 nM.

B7: Ac-(17-129-23-T01) (peptide)
peptide: CPGECFYPPGHRLYCYSE
modifications: N-terminal acetyl; 3 Cys linked to TATA scaffold
In test [5], B7 registered a Kd of 8.9 nM.

B8: 17-120-31-T01 (peptide)
peptide: HLPPCVTECALLFPKTCA
modifications: 3 Cys linked to TATA scaffold
Take B8: the Kd in test [2] came out at 50.2 nM.

B9: 17-120-31-T02 (peptide)
peptide: RLPPCVTECALLFPKTCA
modifications: 3 Cys linked to TATA scaffold
In test [2], B9 returned a Kd of 68.3 nM.

B10: 17-111-02 (peptide)
peptide: ACPELCVDLYPHCA
modifications: 3 Cys linked to TATA scaffold
Turning to B10, the Kd in test [1] amounted to 2300 nM.
